Experimental data as given in patent US20150057316A1, “NOVEL SULFONATE-BASED TRIMEBUTINE SALTS” (GICARE PHARMA INC., priority 2012, published 2015).

Assays:
Caco-2 cells = assay: Caco-2 bidirectional permeability; assay type: in vitro ADME, human; conditions: class from Papp A-B; listed as 3-thiocarbamoylbenzenesulfonate moiety
Text: Such a procedure helps understanding the suitability of the compound for oral dosing by measuring the rate of transport of the molecule across the Caco-2 cells, which have characteristics that resemble intestinal epithelial cells. Transport in both directions (apical to basolateral (A-B) and basolateral to apical (B-A)) across the cell monolayer was monitored over a 2-hr time period in order to evaluate the efflux ratio, an indicator of whether the compound undergoes significant active efflux or not. The permeability coefficient (Papp) is calculated from the equation: […]
Where dQ/dt is the rate of permeation of the drug across the cells, Co is the donor compartment concentration at time zero and A is the area of the cell monolayer. Co is obtained from analysis of the dosing solution at the start of the experiment. The analysis method used was LCMS quantification.
A permeability of (Papp A-B)<1.0×10^−6 cm/s is considered low, whereas a permeability of (Papp A-B)>1.0×10^−6 cm/s is considered high. A significant efflux is generally associated with an efflux ratio above 3.0 and a (Papp B-A)>1.0×10^−6 cm/s in these assay conditions.

[1] = quantification of counter-ion and metabolites in urine and feces of rats; assay type: in vivo; conditions: 500 mg/kg p.o., 48 hr collection
Experimental: A preliminary toxicological evaluation of the compound was done in 250-300 g male Sprague-Dawley rats. Animals were randomized into one of three dosing group, i.e. 250, 500 or 1,000 mg/kg administered by oral gavage. Following administration of the test article, animals were observed hourly for the first 8 hr post-dosing for clinical signs and twice daily thereafter until termination on Day 7. Three animals per group were sacrificed by exsanguination under general anesthesia at 24-hr post dosing or on Day 7 and a gross necropsy was performed in all animals. Additionally, all three rats having received the 500 mg/kg dose and scheduled for sacrifice on Day 7 were placed in individual metabolic cages immediately following test article administration, in order to collect feces and urine during 48 hr. Blood samples were collected terminally from each rat for hematology and serum chemistry evaluation.
After proper urine and feces samples preparation, trimebutine 3-thiocarbamoyl-benzenesulfonate and its two metabolites were assayed by HPLC-MS/MS (ESI-), in MRM mode. Calibration curves were prepared for each analyte, in both matrices (diluted blank urine and diluted blank feces).

NC(=S)c1cccc(S(=O)(=O)O)c1
Permeability (Caco-2 cells): low
recovery of unchanged 3-thiocarbamoylbenzenesulfonate counter-ion in urine and feces [1]: quasi-quantitative recovery
